This assay has as its target GFP/hERβ fusion protein (UniProt P42212+Q92731, F64L/H231L/S65T). Type of assay: cell-based, human. Conditions: 17β estradiol at final concentration 10^−7 M; 45 minutes after addition compared with immediately after (0 minute); serum-free, phenol-red-free L-15 medium; not observed in control cell expressing only GFP.

Amino acid sequences for entries named in this document (tags omitted). A change or cut given only in a name is not applied to a line headed by its entry.
UniProt Q92731: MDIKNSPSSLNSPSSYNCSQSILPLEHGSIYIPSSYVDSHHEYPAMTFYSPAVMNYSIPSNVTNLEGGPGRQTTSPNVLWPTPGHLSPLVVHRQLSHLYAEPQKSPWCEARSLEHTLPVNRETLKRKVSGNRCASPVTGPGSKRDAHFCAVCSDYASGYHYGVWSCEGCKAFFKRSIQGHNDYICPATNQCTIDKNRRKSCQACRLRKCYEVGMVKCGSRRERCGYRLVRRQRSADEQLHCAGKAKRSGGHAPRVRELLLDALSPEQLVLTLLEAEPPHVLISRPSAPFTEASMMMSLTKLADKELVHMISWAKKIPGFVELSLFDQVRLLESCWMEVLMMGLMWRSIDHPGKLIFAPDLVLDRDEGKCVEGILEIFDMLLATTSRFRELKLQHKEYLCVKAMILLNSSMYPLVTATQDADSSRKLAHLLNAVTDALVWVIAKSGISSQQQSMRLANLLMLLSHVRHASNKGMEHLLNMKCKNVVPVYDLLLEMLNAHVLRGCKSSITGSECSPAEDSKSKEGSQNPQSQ

As for `C[C@]12CC[C@@H]3c4ccc(O)cc4CC[C@H]3[C@@H]1CC[C@@H]2O` [17β estradiol], the “diffusion time of the GFP/hERβ fusion protein (FCS measurement, intranuclear)” value was “increases”.

These data come from US20020072076A1 (priority 1999, published 2002).
